In PMC4428678:

Biological target: His-tagged human CRMP-2 (residues 1-490) (human) (UniProt Q16555)
Assay: SEC

His-tagged human CRMP-2 (residues 1-490) (from UniProt Q16555 1-490) (domain or fragment)
stoichiometry N: 4
